Patent publication US20090221708A1, “Medicinal preparation” (priority 2004, published 2009)

Key:
[1] = test system: cancer cells PC-3 (prostate carcinoma); experiment: Example 1: mitochondrial membranes of cancer cells PC-3 in test tubes; format: cell-based
melanoma-16 = experiment: Example 8: mice inoculated with melanoma-16; format: in vivo; conditions: single dose of 5 mg as a drink

With “Reaferon: recombinant α2 Interferon produced from the pseudomonad bacterial strain” the “destruction of mitochondrial membranes” value ([1]; PC-3, 24 hours at 37° C.) was “approx. 60%”, the “mitochondrial membranes of cancer cells (appearance)” value ([1]; PC-3, dilution 10^−5 mmol/l, 24 hours at 37° C.) was “membrane swelling” and the “mice alive on the 36th day of the test” value (melanoma-16) was 4 mice.
